Biological target: T1, HDAC1 enzyme (Homo sapiens, UniProt Q13547)
T1 construct: Amplification of human HDAC1 coding region from this cDNA library was cloned separately into the baculovirus expression pDEST20 vector; made in house; host or cells: SF9 insect cells (baculovirus, pDEST20 vector)
Experiment: In vitro HDAC assay for determination of IC50 values (BIOMOL fluorescent-based HDAC activity assay)
Type: biochemical
Conditions: recombinant GST-HDAC1, 500 uM Flur de lys substrate, room temperature 2 h; read-out: IC50 (HDAC 1)
Description: Human cDNA library was prepared using cultured SW620 cells. Amplification of human HDAC1 coding region from this cDNA library was cloned separately into the baculovirus expression pDEST20 vector (GATEWAY Cloning Technology, Invitrogen Pte Ltd). The pDEST20-HDAC1 construct was confirmed by DNA sequencing. Recombinant baculovirus was prepared using the Bac-To-Bac method following the manufacturer's instruction (Invitrogen Pte Ltd). Baculovirus titer was determined by plaque assay to be about 10^8 PFU/ml.
Expression of GST-HDAC1 was done by infecting SF9 cells (Invitrogen Pte Ltd) with pDEST20-HDAC1 baculovirus at MOI=1 for 48 h. Soluble cell lysate was incubated with pre-equilibrated Glutathione Sepharose 4B beads (Amersham) at 4°C for 2 h. The beads were washed with PBS buffer for 3 times. The GST-HDAC1 protein was eluted by elution buffer containing 50 mM Tris, pH8.0, 150mM NaCl, 1% Triton X-100 and 10mM or 20mM reduced Glutathione. The purified GST-HDAC1 protein was dialyzed with HDAC storage buffer containing 10mM Tris, pH7.5, 100mM NaCl and 3mM MgCl2. […]
The assay has been carried out in 96 well format and the BIOMOL fluorescent-based HDAC activity assay has been applied. […] The fluorophore is excited with 360 nm light and the emitted light (460 nm) is detected on a fluorometric plate reader (Tecan Ultra Microplate detection system, Tecan Group Ltd.). […]

Chains of the proteins cited; added tags and fusions are not shown.
UniProt Q13547, whole entry: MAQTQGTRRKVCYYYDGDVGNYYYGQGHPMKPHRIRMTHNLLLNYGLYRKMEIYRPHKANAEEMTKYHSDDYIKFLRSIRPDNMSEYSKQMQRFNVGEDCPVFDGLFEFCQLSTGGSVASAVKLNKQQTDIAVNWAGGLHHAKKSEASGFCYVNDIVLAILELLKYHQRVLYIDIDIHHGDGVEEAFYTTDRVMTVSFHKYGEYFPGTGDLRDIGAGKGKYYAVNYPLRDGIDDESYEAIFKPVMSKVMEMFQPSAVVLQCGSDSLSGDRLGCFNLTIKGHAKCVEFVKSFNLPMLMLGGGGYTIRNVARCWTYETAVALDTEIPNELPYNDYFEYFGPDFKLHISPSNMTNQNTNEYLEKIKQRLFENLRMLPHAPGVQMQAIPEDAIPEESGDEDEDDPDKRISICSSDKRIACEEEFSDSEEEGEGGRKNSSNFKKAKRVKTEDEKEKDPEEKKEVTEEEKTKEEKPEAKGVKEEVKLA

3-(2-Butyl-3-{(ethyl-(2-methyl-pentyl)-amino]-methyl}-imidazo[1,2-a]pyridin-7-yl)-N-hydroxy-acrylamide [Compound 41]
IC50: 60 nM

— patent publication EP2064211B1, “IMIDAZO[1,2-A]PYRIDINE HYDROXYMATE COMPOUNDS THAT ARE INHIBITORS OF HISTONE DEACETYLASE” (MEI Pharma, Inc., priority 2006, dated 2008)
